The record followed here is PubChem BioAssay AID504734 (The Scripps Research Institute Molecular Screening Center, 2011).

The chains behind the UniProt entries cited, without tags or fusion partners. Where a name states a change or a piece, a line headed by the entry shows the natural chain unless it says otherwise.
UniProt Q9NR96: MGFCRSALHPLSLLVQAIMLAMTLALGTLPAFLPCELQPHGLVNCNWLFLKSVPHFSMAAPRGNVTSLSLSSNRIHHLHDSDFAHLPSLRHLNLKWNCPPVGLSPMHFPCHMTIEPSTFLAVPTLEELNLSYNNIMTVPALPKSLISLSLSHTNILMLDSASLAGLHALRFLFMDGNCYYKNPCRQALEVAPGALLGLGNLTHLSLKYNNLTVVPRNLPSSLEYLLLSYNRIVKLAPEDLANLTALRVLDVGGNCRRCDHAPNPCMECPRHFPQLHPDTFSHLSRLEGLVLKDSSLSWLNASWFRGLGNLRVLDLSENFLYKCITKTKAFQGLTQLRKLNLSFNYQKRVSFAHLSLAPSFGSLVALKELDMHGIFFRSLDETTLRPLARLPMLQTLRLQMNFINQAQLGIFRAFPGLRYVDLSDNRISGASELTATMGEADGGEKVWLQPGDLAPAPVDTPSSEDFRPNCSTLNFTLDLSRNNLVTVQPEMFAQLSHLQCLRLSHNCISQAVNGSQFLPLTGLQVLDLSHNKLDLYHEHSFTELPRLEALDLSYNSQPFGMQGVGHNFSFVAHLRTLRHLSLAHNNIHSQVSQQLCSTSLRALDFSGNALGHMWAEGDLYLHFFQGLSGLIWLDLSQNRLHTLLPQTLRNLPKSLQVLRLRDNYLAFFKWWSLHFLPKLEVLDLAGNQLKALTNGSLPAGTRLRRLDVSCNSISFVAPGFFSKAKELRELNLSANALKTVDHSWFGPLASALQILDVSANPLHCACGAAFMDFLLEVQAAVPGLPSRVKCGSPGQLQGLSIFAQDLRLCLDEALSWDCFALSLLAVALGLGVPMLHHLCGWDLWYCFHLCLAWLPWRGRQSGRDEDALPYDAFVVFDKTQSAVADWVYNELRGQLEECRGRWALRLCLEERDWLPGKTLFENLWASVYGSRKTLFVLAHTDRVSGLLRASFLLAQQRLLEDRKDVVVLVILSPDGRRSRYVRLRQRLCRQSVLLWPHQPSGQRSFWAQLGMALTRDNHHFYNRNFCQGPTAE
UniProt Q99836, whole entry, looked up: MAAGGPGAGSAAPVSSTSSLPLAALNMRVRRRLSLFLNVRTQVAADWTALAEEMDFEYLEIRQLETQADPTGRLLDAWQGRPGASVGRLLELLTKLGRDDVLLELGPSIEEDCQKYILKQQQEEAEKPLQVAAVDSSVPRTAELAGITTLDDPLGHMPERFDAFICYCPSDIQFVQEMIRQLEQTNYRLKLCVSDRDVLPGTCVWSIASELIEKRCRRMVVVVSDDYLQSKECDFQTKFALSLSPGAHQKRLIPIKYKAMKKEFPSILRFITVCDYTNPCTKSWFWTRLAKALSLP

This is a selection; strong and weak results do not stand in their true shares. Active and inactive are the calls of the source.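 The calls were made as follows: active = inhibition above the mean over all tested compounds plus 3 SD (cut at about 21% in these data); inactive = the rest.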

In this assay the target is Toll-like receptor 9 (Homo sapiens) + Myeloid differentiation primary response protein MyD88 (Homo sapiens) (UniProt Q9NR96+Q99836). Put plainly: inhibitors of TLR9-MyD88 association in cells, primary screen, cell-based, CHO, BLA complementation, fluorescence (AID 504734).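 Also: 0% = DMSO only wells and 100% = clavulanate BLA inhibitor control wells.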 To be noted: CHO BLA complementation TLR9-MyD88, CCF4 FRET ratio; at 4.98 µM; active compounds read high.
The inhibition is the relative decrease from the control value, in per cent. Consider `CC(C)(C)C(=O)NC(Sc1ncccn1)C(Cl)(Cl)Cl` (centres undefined), for which the inhibition was inactive: 4.68%.

As to `Clc1n[nH]nc1-c1nn[nH][15n]1`, the inhibition is inactive: -4.63%.

In the case of `O=P1(N(CCCl)CCCl)NCCC(C(F)(F)F)O1` (centres undefined), the inhibition was inactive: 1.95%.

Turning to `CCOP(=O)(NC(=NC(C)c1ccccc1)NC(C)c1ccccc1)OCC` (centres undefined), the inhibition was inactive: -12.3%.

Turning to `CCC1=CC2Cc3nc4ccc(Cl)cc4c(N)c3C(C1)C2` (centres undefined), the inhibition was inactive: 7.48%.

As for `O=P1(Nc2ccccn2)COc2ccccc2OC1`, the inhibition is inactive: 13.3%.

Turning to `CCOP(=O)(Nc1ccc(C)cn1)OCC`, the inhibition is inactive: -13.1%.

For `CN(C(=O)Cc1ccc(Cl)c(Cl)c1)[C@@H]1CCCC[C@H]1N1CCCC1`, the inhibition was inactive: -4.97%.

`CC(C)/C=N\N=C(\N)N[N+](=O)[O-]`: the inhibition is inactive: -15.2%.

`CC1(CBr)Cn2c(nc3ccccc3c2=O)S1` (centres undefined): the inhibition is inactive: 3.63%.

Turning to `COc1ccccc1CNC(=O)COC(=O)C(O)(c1ccccc1)c1ccccc1`, the inhibition is inactive: 14.8%.

As for `CN(C)C1(CNC(=O)c2ccc(S(C)(=O)=O)cc2)CCCCC1`, the inhibition is inactive: -1.77%.

Take `CCCC1OP(=O)(Nc2ccccc2)OCC1CC` (centres undefined): the inhibition was inactive: 0.86%.

Consider `O=C(/C=C/c1ccccc1)OC1CN2CCC1CC2` (centres undefined), for which the inhibition was inactive: 5.4%.

On to `Cc1ccc(C(=O)OC2CN3CCC2CC3)cc1` (centres undefined), for which the inhibition is inactive: 2.2%.

On to `CC1CCC(C(C)C)C(OP(=O)(Nc2ccccn2)c2ccccc2)C1` (centres undefined), for which the inhibition is inactive: 9.99%.

`Cc1nn(-c2ccccc2)c2c1P(=O)(N1CCOCC1)N(C)C(c1ccccc1)=N2` (centres undefined): the inhibition is inactive: 10.1%.

For `Nc1cccc([As](=O)(O)c2ccccc2)c1`, the inhibition was inactive: 5.66%.

For `Cc1ccc(OCC(=O)OC2CN3CCC2CC3)cc1` (centres undefined), the inhibition was inactive: -7.09%.

With `O=[As](O)(c1cccs1)c1cccs1`, the inhibition is inactive: -0.1%.

On to `NS(=O)(=O)c1cccc(NC(=O)COC(=O)C(O)(c2ccccc2)c2ccccc2)c1`, for which the inhibition was inactive: 0.95%.

In the case of `O=P1(Nc2ccc(Br)cn2)COc2ccccc2OC1`, the inhibition is inactive: -1.08%.

Take `O=P1(Nc2ncccn2)COc2ccccc2OC1`: the inhibition is inactive: 3.69%.

For the molecule `O=C(O)COc1ccc([As](=O)(O)O)cc1[N+](=O)[O-]`, the inhibition is inactive: 0.78%.

For the molecule `Nc1ccccc1[As](=O)(O)c1ccccc1`, the inhibition is inactive: 5.29%.

For the molecule `O=P(Nc1nccs1)(Oc1ccccc1)Oc1ccccc1`, the inhibition is inactive: -5.19%.

Take `O=P(Nc1nccs1)(c1ccccc1)c1nc2ccccc2s1` (centres undefined): the inhibition was inactive: 7.52%.

Regarding `CCOP1(=S)c2c(C)nn(CCC#N)c2N=C(c2ccccc2F)N1C` (centres undefined), the inhibition is inactive: -4.73%.

For `CS(=O)(=O)c1cc([N+](=O)[O-])c2no[n+]([O-])c2c1`, the inhibition was inactive: 4.78%.

Consider `CCOP1(=S)c2c(C)nn(CCC#N)c2N=C(c2ccc(F)cc2)N1C` (centres undefined), for which the inhibition was inactive: -2.1%.

Regarding `CN(C(=O)Cc1ccccc1)[C@@H]1CC[C@]2(CCCO2)C[C@H]1N1CCCC1`, the inhibition was inactive: 0.38%.

For `N#CCCN(C(=O)COC(=O)C(O)(c1ccccc1)c1ccccc1)c1ccc(F)cc1`, the inhibition was inactive: -4.88%.

In the case of `CN(C(=O)Cc1ccc(Cl)c(Cl)c1)[C@H]1CC[C@@]2(CCCO2)C[C@@H]1N1CCCC1`, the inhibition was inactive: 2.3%.

As for `O=[N+]([O-])c1ccc2c(c1)nnn2O`, the inhibition is inactive: -5.61%.

Regarding `CN(C)C(=O)c1cc([N+](=O)[O-])cc2c1-c1c(cc([N+](=O)[O-])cc1[N+](=O)[O-])C2=O`, the inhibition is active: 22.9%.

On to `NC(=O)Nc1ccc([As](=O)(O)O)cc1`, for which the inhibition is inactive: -0.91%.

With `Cc1cccc(OCC(=O)OC2CN3CCC2CC3)c1` (centres undefined), the inhibition was inactive: -3.98%.

Turning to `O=[As](O)(c1cccc(O)c1)c1cccc(O)c1`, the inhibition was inactive: 10.8%.

As for `O=C(OC1CN2CCC1CC2)c1ccc(Cl)cc1` (centres undefined), the inhibition was inactive: -4.79%.

Turning to `CS(=O)(=O)c1ccc(Cl)c(NC(=O)COC(=O)C(O)(c2ccccc2)c2ccccc2)c1`, the inhibition was inactive: -3.42%.

On to `O=[As](O)(O)c1cccnc1`, for which the inhibition is inactive: 6.92%.

`COc1cc(C(=O)NCC2(N3CCOCC3)CCCCC2)cc(Cl)c1OC(C)C`: the inhibition is inactive: 3.52%.

As for `CCOP(=O)(Nc1cccc2ccccc12)OCC`, the inhibition was inactive: -0.47%.

`COc1cc(C2NCCC3(OCCO3)C2(C)C)cc(OC)c1OC` (centres undefined): the inhibition is inactive: -3.31%.

With `Cc1ccc(NCCc2c([N+](=O)[O-])cc([N+](=O)[O-])cc2[N+](=O)[O-])cc1`, the inhibition is inactive: 1.5%.

For the molecule `Nc1cccc2c([As](=O)(O)O)cccc12`, the inhibition is inactive: -7.36%.

Regarding `CCCOP(=S)(Nc1nc(N)cc(=O)[nH]1)OCCC`, the inhibition is inactive: 3.93%.

On to `O=P1(N(CCCl)CCCl)Nc2ccccc2N1`, for which the inhibition is inactive: 6.23%.

For `O=P1(N(CCCl)CCCl)OCCCN1CCCl` (centres undefined), the inhibition was inactive: 1.47%.

For the molecule `COc1cc(I)ccc1[As](=O)(O)O`, the inhibition is inactive: -6.4%.

For `COc1ccc2nc(NP(=O)(c3ccccc3)c3ccccc3)sc2c1`, the inhibition was inactive: -8.47%.

For `Cc1c2c(nc3ccccc13)SC(C(Cl)Cl)C2` (centres undefined), the inhibition was inactive: 2%.

As for `Cc1cc(=O)[nH]c(N[N+](=O)[O-])n1`, the inhibition was inactive: 10.8%.

Consider `O=C(OC1CN2CCC1CC2)C12CC3CC(CC(C3)C1)C2` (centres undefined), for which the inhibition is inactive: -1.02%.

Consider `O=[N+]([O-])c1cc(Oc2ccc([N+](=O)[O-])cc2C(F)(F)F)cc([N+](=O)[O-])c1`, for which the inhibition was inactive: -3.24%.

With `COc1ccc(N/C(=N/P(=O)(N2CCOCC2)N2CCOCC2)N2CCOCC2)cc1`, the inhibition was inactive: 0.75%.

For the molecule `Cc1ccc(OP(=O)(Nc2ccc([N+](=O)[O-])cn2)Oc2ccc(C)cc2)cc1`, the inhibition is inactive: 4.6%.

In the case of `Cc1ccc2nc3c(c(C)c2c1)CC(C(Cl)Cl)S3` (centres undefined), the inhibition is inactive: 5.12%.

Turning to `O=[N+]([O-])c1ccc(-c2cc([N+](=O)[O-])c(O)c([N+](=O)[O-])c2)cc1`, the inhibition was inactive: -1.3%.

With `COc1cc(C(=O)NCC2(N3CCOCC3)CCCCC2)ccc1OCC(C)C`, the inhibition is inactive: 0.02%.

Take `C[As](=O)(O)c1cccc(C(=O)O)c1`: the inhibition was inactive: -3.39%.

With `O=[As](O)(c1ccc(O)cc1)c1ccccc1O`, the inhibition was inactive: 0.79%.

With `O=[N+]([O-])c1cc([N+](=O)[O-])c(-c2ccn[nH]2)s1`, the inhibition is inactive: 7.5%.

Take `CCN(CC)C(=S)SC(NC=O)C(Cl)(Cl)Cl` (centres undefined): the inhibition is inactive: -10.2%.

Take `O=C(OC1CN2CCC1CC2)c1cccc2[nH]cnc12` (centres undefined): the inhibition was inactive: -5.34%.

With `ClCCSc1nnc(-c2cccnc2)o1`, the inhibition was inactive: -3.55%.

As for `COC(=O)C1(C)COP(=O)(N2CCCCCC2)OC1` (centres undefined), the inhibition was inactive: -12.8%.

Consider `CC(C)c1ccc(OP(=O)(Nc2ccccn2)Oc2ccccc2F)cc1` (centres undefined), for which the inhibition was inactive: -1.51%.

Regarding `COP(=O)(OC)N1CC1c1ccccc1` (centres undefined), the inhibition is inactive: -4.41%.

Regarding `Cc1cc(SC(NC(=O)c2ccccc2)C(Cl)(Cl)Cl)nc(C(C)C)n1` (centres undefined), the inhibition was inactive: 3.88%.

For `CCCCOc1ccc(C(=O)NCC2(N3CCCCC3)CCCCC2)cc1OC`, the inhibition was inactive: -3.52%.

As to `O=C(O)C(O)c1ccc(N(CCCl)CCCl)cc1` (centres undefined), the inhibition is inactive: 2.58%.

Take `CCOC(=O)Nc1ccc([As](=O)(O)O)c(O)c1`: the inhibition is inactive: -1.02%.

Take `CC1CCNP(=O)(N(CCCl)CCCl)O1` (centres undefined): the inhibition is inactive: -0.82%.

Take `Cc1cc(SC(NC=O)C(Cl)(Cl)Cl)ncn1` (centres undefined): the inhibition was inactive: 1.15%.

Turning to `O=P(Nc1ccccn1)(c1cccc2ccccc12)c1cccc2ccccc12`, the inhibition is inactive: -2.05%.

Consider `O=[N+]([O-])c1ccc(Nc2ccc(Oc3ccc([N+](=O)[O-])cc3[N+](=O)[O-])cc2)c([N+](=O)[O-])c1`, for which the inhibition was inactive: 3.83%.

`CCOC(=O)Nc1cccc([As](=O)(O)O)c1`: the inhibition was inactive: -3.47%.

For the molecule `O=C(O)C(=O)c1ccc(N(CCCl)CCCl)cc1`, the inhibition was inactive: -1.16%.

`O=C(Nc1ccncc1[N+](=O)[O-])c1ccc([N+](=O)[O-])cc1[N+](=O)[O-]`: the inhibition was inactive: -1.84%.

For the molecule `O=C(COc1ccccc1)OC1CN2CCC1CC2` (centres undefined), the inhibition is inactive: -6.32%.

Regarding `COP1(=S)c2c(C)nn(CCC#N)c2N=C(c2ccc(F)cc2)N1C` (centres undefined), the inhibition is inactive: 1.88%.

With `CCC(C)N(CC(C)C)C(=S)SC(NC(C)=O)C(Cl)(Cl)Cl` (centres undefined), the inhibition was inactive: -6.53%.

`CSc1ccc(Nc2c([N+](=O)[O-])cc([N+](=O)[O-])cc2[N+](=O)[O-])cc1`: the inhibition was inactive: -5.47%.

In the case of `O=C(OC1CN2CCC1CC2)c1cccc([N+](=O)[O-])c1` (centres undefined), the inhibition was inactive: 5.22%.

`CCOC(=O)c1ccc(NC(=O)C(C)(CCl)SC)cc1` (centres undefined): the inhibition is inactive: 1.33%.

Regarding `O=[N+]([O-])c1cc([N+](=O)[O-])c(CCNc2ccccc2)c([N+](=O)[O-])c1`, the inhibition was inactive: -5.83%.

Regarding `CCc1nc2c(n1)c1c(non1O)c1c2no[n+]1[O-]`, the inhibition is inactive: 10.3%.

In the case of `Cc1ccc(NP(=O)(Oc2ccccc2)Oc2ccccc2)nc1`, the inhibition is inactive: -1.04%.

With `CC(=O)N1C2C3N(C(C)=O)C1C1N(C(C)=O)C(C(N1C(C)=O)N3C(C)=O)N2C(C)=O`, the inhibition was inactive: 7.72%.

Turning to `O=[N+]([O-])c1cccc2n[nH]nc12`, the inhibition was inactive: -5.63%.

On to `COc1ccc(C2=NCC(CBr)S2)cc1` (centres undefined), for which the inhibition is inactive: 1.92%.

Take `CC1CCN(C(=O)Oc2c(Cl)cc(Cl)c3cccnc23)CC1`: the inhibition is inactive: -7.62%.

On to `c1cc(-c2nn[nH]n2)ccc1-c1nn[nH]n1`, for which the inhibition was inactive: -2.78%.

Consider `CN(C)C(=O)OCCc1n(C)cc[n+]1C`, for which the inhibition was inactive: -3.74%.

Take `CC(C)c1nc(Nc2ccccc2)n(P(=O)(N(C)C)N(C)C)n1`: the inhibition is inactive: -13.9%.

In the case of `CC(C)=N/N=C(\N)N[N+](=O)[O-]`, the inhibition was inactive: -6.78%.

In the case of `CCN(/C(=N/P(=O)(N1CCOCC1)N1CCOCC1)N1CCOCC1)c1ccc(OC)cc1`, the inhibition was inactive: -6.85%.

As to `C[N+]1=C2C=CC=CC=C2SC12C([N+](=O)[O-])=CC([N+](=O)[O-])=C[C-]2[N+](=O)[O-]` (centres undefined), the inhibition was inactive: 13.3%.
